Like-named read-outs stand apart in the source and are kept apart here.
Q: What does the source list for Ramoplanin?
A: mean concentration in stool (100 μg/ml dose, day 7 of treatment, n=5 mice): 188 μg/g of stool; mean concentration in stool (300 μg/ml dose, day 7, n=5 mice): 310 µg/mL
